{"source": "patent US20230256011A1", "about": "“Chlorite In the Treatment of Acute Respiratory Distress Syndrome” (The Regents of the University of California, priority 2020, published 2023)", "key": {"[1]": {"system": "Blood derived macrophages from ALS patients", "conditions": "300uM overnight", "description": "The maj or focus was on regulation of inflammation as compared to normal macrophage functional genes. […] Note that by “housekeeping genes” is meant B2M, HPRT1, RPL13A, GAPDH, and ACTB."}, "[2]": {"system": "ALS blood monocytes", "conditions": "300uM, 3 days"}, "[3]": {"system": "COVID19 blood monocytes"}, "[4]": {"system": "COVID-19 patients", "conditions": "human, in vivo"}}, "data": [{"substance": "sodium chlorite [sodium chlorite formulation]", "values": [{"measurement": "cell death", "setting": "[1]", "value": "no cell death"}, {"measurement": "toxicity to ALS macrophages", "setting": "[2]", "value": "non-toxic"}, {"measurement": "toxicity to COVID-19 macrophages", "setting": "[3]", "value": "non-toxic"}, {"measurement": "tolerability and toxicity in patients", "setting": "[4]", "value": "well tolerated and non-toxic"}]}]}
